Laboratory results: ChEMBL document CHEMBL6120956, “Discovery of a Potent, Orally Active, and Long-Lasting P2X7 Receptor Antagonist as a Preclinical Candidate for Delaying the Progression of Chronic Kidney Disease” (J Med Chem, 2024)
Activity calls are given as the source filed them. The rule behind the calls is not given here.

Legend:
Format in all cases: cell-based
[1] = target: T1, P2X purinoceptor 7 (Mus musculus) (UniProt Q9Z1M0); assay: Non-competitive antagonist activity against mouse P2X7 receptor expressed in HEK293 cells assessed as non-competitive inhibition of ATP-induced PI accumulation
T1 sequence (whole entry): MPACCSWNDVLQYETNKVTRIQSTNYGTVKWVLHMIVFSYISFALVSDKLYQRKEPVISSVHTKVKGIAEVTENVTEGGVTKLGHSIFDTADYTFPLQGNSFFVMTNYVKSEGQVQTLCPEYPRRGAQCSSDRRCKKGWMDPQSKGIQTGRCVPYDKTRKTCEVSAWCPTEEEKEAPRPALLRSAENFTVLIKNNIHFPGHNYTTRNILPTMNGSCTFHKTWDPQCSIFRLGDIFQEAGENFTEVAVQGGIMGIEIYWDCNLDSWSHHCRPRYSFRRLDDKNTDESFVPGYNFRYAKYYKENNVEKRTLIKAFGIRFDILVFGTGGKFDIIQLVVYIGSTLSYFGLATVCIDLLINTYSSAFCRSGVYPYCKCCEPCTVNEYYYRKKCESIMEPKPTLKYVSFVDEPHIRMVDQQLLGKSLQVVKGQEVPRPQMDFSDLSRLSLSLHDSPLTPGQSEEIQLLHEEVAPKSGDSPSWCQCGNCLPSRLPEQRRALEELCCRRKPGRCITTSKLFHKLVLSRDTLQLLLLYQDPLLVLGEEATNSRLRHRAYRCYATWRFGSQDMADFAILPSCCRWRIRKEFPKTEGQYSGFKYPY

[2] = target: T1, P2X purinoceptor 7 (Mus musculus); assay: Antagonist activity against mouse P2X7 receptor expressed in HEK293 cells assessed as inhibition of ATP-induced PI accumulation by measuring inhibition of red fluorescence at 1 uM by fluorescence microscopy analysis
[3] = target: T1, P2X purinoceptor 7 (Mus musculus); assay: Antagonist activity against mouse P2X7 receptor expressed in HEK293 cells assessed as protection of ATP-induced mitochondrial membrane damage at 1 uM by MitoTracker (red) assay
[4] = target: T1, P2X purinoceptor 7 (Mus musculus); assay: Antagonist activity against mouse P2X7 receptor expressed in HEK293 cells assessed as decrease in LPS/ATP-induced mitochondrial superoxide anion radical increase at 1 uM by MitoSOX (red) assay

inhibition [2]: Active
Activity [4]: Active
Compound: C[C@H](NC(=O)c1cnc(-c2ccc(S(C)(=O)=O)cc2)s1)c1cn(-c2cc(C(F)(F)F)ccn2)nn1
Activity [1]: Active; Concentration Dependent Rightward Shift And Reduced Maximum Response Observed
Activity [3]: Active
